According to patent US20260022127A1, “HEXACYCLIC TOPOISOMERASE INHIBITORS HAVING CYTOTOXIC ACTIVITY ON CANCER CELLS” (priority 2022, published 2026):

Each substance was assayed on SKBR-3 (assay: IC50 values of Herceptin ADCs on SKBR-3 (Table 4)). Settings: ADC with DAR as in column head.
Type: cell-based, human
HER-Deruxtecan [reference compound] was tested, and the IC50 was 59.5 pM.
HER-E-36 showed an IC50 of 790 pM.
For HER-E-37, the IC50 was 47.8 pM.
HER-E-39 showed an IC50 of 44.9 pM.
HER-E-40 was tested, and the IC50 was 36.1 pM.
Substance HER-E-46 has an IC50 of 35.1 pM.
In the case of HER-E-48, the IC50 is reported as 109 pM.
HER-Vedotin [reference compound] showed an IC50 of 31.2 pM.
